Antibody variant affinities, Ab-95 light chain, assay 2

The measurements come from Engelhart et al. 2022 (doi:10.1038/s41597-022-01779-4) through the FLAb antibody collection.

Binding partner: SARS-CoV-2 spike HR2 peptide, sequence PDVDLGDISGINAS.

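Variants in AAYL52 differ from the parent at up to three CDR positions; double and triple changes were sampled at random. The scFvs were displayed on barcoded MATa yeast, the peptide on MATalpha yeast. Mating (16 h, 30 °C) was followed by selection of diploids and sequencing of their barcodes. Scores were corrected for input abundance and mapped to Kd with protein pairs of known affinity run in the same pool. Each pool was mated in three replicate cultures.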

Parent: Ab-95, a human scFv built as VH, three GGGGS repeats, VL. Only the CDRs of the light chain vary.
VH: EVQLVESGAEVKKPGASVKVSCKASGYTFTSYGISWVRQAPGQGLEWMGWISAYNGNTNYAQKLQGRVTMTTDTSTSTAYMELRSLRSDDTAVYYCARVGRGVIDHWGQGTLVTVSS
VL: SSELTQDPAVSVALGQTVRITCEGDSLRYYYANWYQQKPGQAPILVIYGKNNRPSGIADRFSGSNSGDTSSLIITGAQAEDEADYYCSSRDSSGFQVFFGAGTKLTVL

The parent's light chain CDRs are EGDSLRYYYAN, GKNNRPS, SSRDSSGFQVF; each variant's own CDRs replace them letter for letter.
Numbers give log10(Kd / nM), so 0 is 1 nM and 3 is 1 µM. Smaller is tighter.
An entry "n.d." has no value in the source: the pair was not observed among the diploids in that replicate. This suggests poor binding but is not conclusive.

| CDR-L1 | CDR-L2 | CDR-L3 | replicates, log10 nM | empty controls |
|---|---|---|---|---|
| EGDSLRYYYAN | SKNNRQS | DSRDSSGFQVF | n.d. / n.d. / n.d. | 6/9 (4.49) |
| EGDSLRYYYAN | GKNNRFS | SHRDSSGSQVF | n.d. / n.d. / n.d. | 1/9 (4.78) |
| KGTSLRYYYAN | GKNNRPS | SSRDSSGFQVF | 1.97 / 2.11 / 1.93 | 2/9 (3.62) |
| EGDSLRYYYAN | GKNNWPS | SIRDSSGFQVR | 4.35 / n.d. / n.d. | 6/9 (4.40) |
| EGDSLRHYYAN | GKNNRPS | QSRDSSGFQVL | 3.03 / 2.64 / 2.44 | 2/9 (3.41) |
| ECDSLRYYYAN | GFNNRPS | GSRDSSGFQVF | n.d. / n.d. / n.d. | 1/9 (2.98) |
| EGDSHRYYYCN | GKNNRPS | SSRDSSGFQVF | 3.73 / n.d. / 4.46 | 0/9 |
| EGDSLRYYYFN | IKNNRPS | SSRDPSGFQVF | 4.36 / 4.46 / 4.33 | 6/9 (3.57) |
| EGDSLRYYYHN | GKNYRPS | TSRDSSGFQVF | 4.14 / 5.30 / n.d. | 5/9 (4.29) |
| EGDSLVYYYAN | GKNNRSS | SSRSSSGFQVF | n.d. / 3.47 / 2.83 | 2/9 (3.53) |
| EPDSLRYYYAN | GKNNRPS | SSRDSSGFYVR | 5.33 / 4.23 / 4.15 | 4/9 (3.76) |
| MGDSLRYYYAN | GKWNRPS | SSRDRSGFQVF | 3.50 / 5.38 / n.d. | 2/9 (3.43) |
| EGDSLRYAYAN | GKNNSPS | SSRDSSGMQVF | 2.15 / 2.03 / 1.43 | 2/9 (4.85) |
| EGDSLRIYYAN | GHNNRPS | SSRDLSGFQVF | n.d. / n.d. / n.d. | 1/9 (4.14) |
| EGDSLRRYYAN | QKNNRPS | SSRDSSGFQFF | 4.21 / n.d. / n.d. | 1/9 (3.84) |
| EGPSLRYYYAN | GKVNRPS | SSRDSSGFHVF | n.d. / n.d. / 4.56 | 2/9 (4.22) |
| EGDSLRYVYAN | GKNNHPS | SCRDSSGFQVF | 2.10 / 2.18 / 1.82 | 3/9 (4.27) |
| EGDSLRYYYAK | IKNNRPF | SSRDSSGFQVF | 4.37 / n.d. / n.d. | 1/9 (5.42) |
| EGDSMRYYYAN | GKMNRPS | SSRDSGGFQVF | 3.30 / 3.61 / n.d. | 3/9 (3.83) |
| EGDSLLYYYAN | GKNNRPS | SSRDSSGFQQE | 2.32 / 2.92 / 2.38 | 2/9 (4.01) |
| EGDSLRYMYAN | GKNNRPS | KSRDSSGFQVF | 1.96 / 1.74 / 1.49 | 3/9 (4.22) |
| EGDSYRYYYAN | GNNNRPS | SSRPSSGFQVF | n.d. / 4.43 / n.d. | 5/9 (4.08) |
| EGDSLRYYYAN | GKNNRPH | SSRGSSGFQVF | 2.99 / 2.85 / 3.76 | 6/9 (4.18) |
| EGDSLRYYYAN | GANNRPS | SSRDSSGYQVF | 1.66 / 1.57 / 1.39 | 3/9 (3.89) |
| PGDSLRYYYAN | GKNPRPS | SSRDSSGFQVK | n.d. / 5.75 / n.d. | 1/9 (4.33) |
| EGDSLRYWYAN | GKNNRPS | SSRDSSGFQMF | 3.24 / 3.36 / n.d. | 5/9 (3.98) |
| EGDSLYYYYAN | GKNNRPS | SSRDNWGFQVF | 3.64 / 4.53 / 3.63 | 2/9 (4.39) |
| EGDSLRYYYPN | GLNNRPS | SSRDSTGFQVF | 2.02 / 1.92 / 1.75 | 1/9 (4.23) |
| EGDSLRYYYAN | GKNNRKS | SSRDSSKFQVF | n.d. / n.d. / 4.03 | 0/9 |
| EGDLLRYYYAN | GKNNRPS | SSRDSSEFCVF | 2.43 / 2.55 / 2.16 | 4/9 (3.50) |
| EGDSIRYYMAN | GKNNRPS | SSRESSGFQVF | 4.12 / 3.22 / 3.18 | 4/9 (3.63) |
| EGDSLRYYYAN | GKNFFPS | SSRDSSGFQVM | 5.14 / 5.15 / n.d. | 3/9 (4.36) |
| EGDSLRYYWAA | GKNNRPS | SDRDSSGFQVF | n.d. / n.d. / n.d. | 2/9 (4.09) |

The opening 4 entries, copied out:

| CDR-L1 | CDR-L2 | CDR-L3 | replicates, log10 nM | empty controls |
|---|---|---|---|---|
| EGDSLRYYYAN | SKNNRQS | DSRDSSGFQVF | n.d. / n.d. / n.d. | 6/9 (4.49) |
| EGDSLRYYYAN | GKNNRFS | SHRDSSGSQVF | n.d. / n.d. / n.d. | 1/9 (4.78) |
| KGTSLRYYYAN | GKNNRPS | SSRDSSGFQVF | 1.97 / 2.11 / 1.93 | 2/9 (3.62) |
| EGDSLRYYYAN | GKNNWPS | SIRDSSGFQVR | 4.35 / n.d. / n.d. | 6/9 (4.40) |

Background: pairings of library AAYL52 with three empty control strains gave a value in 28% of cases (median 3.91, 5th percentile 2.90). Values in that range, when seen in few replicates, are hard to tell from nonspecific mating. Also given: how often the same scFv was detected with the empty control strains, with their mean in brackets.
In this assay the parent's reference entry averaged 2.31; its copy inside this library read 2.25.